Measurements: ChEMBL document CHEMBL5338751, “Discovery of the First-in-Class Intestinal Restricted FXR and FABP1 Dual Modulator ZLY28 for the Treatment of Nonalcoholic Fatty Liver Disease” (J Med Chem, 2023)

Target: T1, Fatty acid-binding protein, liver (Homo sapiens) (UniProt P07148)
T1 sequence (whole entry): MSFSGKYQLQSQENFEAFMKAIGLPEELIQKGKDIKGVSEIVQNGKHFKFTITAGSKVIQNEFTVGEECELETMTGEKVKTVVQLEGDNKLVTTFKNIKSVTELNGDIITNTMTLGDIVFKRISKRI
Test: Displacement of 8-anilino-1-naphthalene-sulfonic acid from FABP1 (unknown origin) at 10 uM incubated for 3 mins by fluorescence based assay relative to control

SMILES	inhibition
O=C(O)Cc1ccc(N2CCC(OCc3c(-c4c(Cl)cccc4Cl)noc3C3CC3)CC2)cc1	15.1%
CC(C)(C(=O)O)c1ccc(-c2ccc(OCc3c(-c4c(Cl)cccc4Cl)noc3C3CC3)cc2)cc1	41.7%
O=C(O)Cc1ccc(-c2ccc(OCc3c(-c4c(Cl)cccc4Cl)noc3C3CC3)cc2)cc1	84.2%
O=C(O)Cc1ccc(-c2ccc(OCc3c(-c4c(Cl)cccc4Cl)noc3C3CC3)cc2Cl)cc1	65.1%
CC(C)c1onc(-c2c(Cl)cccc2Cl)c1COc1ccc(-c2ccc(CC(=O)O)cc2)cc1	35.7%
O=C(O)COc1ccc(-c2ccc(OCc3c(-c4c(Cl)cccc4Cl)noc3C3CC3)cc2)cc1	63.5%
O=C(O)CCc1ccc(-c2ccc(OCc3c(-c4c(Cl)cccc4Cl)noc3C3CC3)cc2)cc1	88.5%
O=C(O)Cc1ccc(-c2ccc(OCc3c(-c4c(Cl)cccc4Cl)noc3C3CC3)c(F)c2)cc1	31.7%
Cc1cc(OCc2c(-c3c(Cl)cccc3Cl)noc2C2CC2)ccc1-c1ccc(CC(=O)O)cc1	49.6%
O=C(O)Cc1ccc(-c2ccc(OCc3c(-c4c(Cl)cccc4Cl)noc3C3CC3)cc2)c(F)c1	4.2%
O=C(O)Cc1ccc(-c2ccc(OCc3c(-c4c(Cl)cccc4Cl)noc3C3CC3)c(Cl)c2)cc1	26.1%
O=C(O)Cc1ccc(-c2ccc(OCc3c(-c4c(Cl)cccc4Cl)noc3C3CC3)cc2)cc1Cl	27.4%
O=C(O)Cc1ccc(-c2ccc(OCc3c(-c4c(Cl)cccc4Cl)noc3C3CC3)cc2F)cc1	30.6%
CC(C)c1onc(-c2ccccc2C(F)(F)F)c1COc1ccc(-c2ccc(CC(=O)O)cc2)cc1	3.7%
Cc1cc(-c2ccc(CC(=O)O)cc2)ccc1OCc1c(-c2c(Cl)cccc2Cl)noc1C1CC1	28%
Cc1cc(CC(=O)O)ccc1-c1ccc(OCc2c(-c3c(Cl)cccc3Cl)noc2C2CC2)cc1	32.8%
O=C(O)C1(c2ccc(N3CCC(OCc4c(-c5c(Cl)cccc5Cl)noc4C4CC4)CC3)cc2)CC1	11.7%

Second part, the compound after the results:

inhibition	SMILES
31.6%	O=C(O)Cc1ccc(-c2ccc(OCc3c(-c4ccccc4OC(F)(F)F)noc3C3CC3)cc2)cc1
35.4%	O=C(O)C1(c2cccc(-c3ccc(OCc4c(-c5ccccc5C(F)(F)F)noc4C4CC4)cc3)c2)CC1
24.9%	O=C(O)Cc1ccc(-c2ccc(OCc3c(-c4c(Cl)cccc4Cl)noc3C3CC3)cc2)cc1F
48.5%	CC(C)c1onc(-c2ccccc2OC(F)(F)F)c1COc1ccc(-c2cccc(CC(=O)O)c2)cc1
0.3%	O=C(O)Cc1ccc(-c2ccc(OCc3c(-c4ccccc4C(F)(F)F)noc3C3CC3)cc2)cc1
7.8%	O=C(O)C1(c2cccc(-c3ccc(OCc4c(-c5ccccc5OC(F)(F)F)noc4C4CC4)cc3)c2)CC1
42.3%	O=C(O)Cc1cccc(-c2ccc(OCc3c(-c4c(Cl)cccc4Cl)noc3C3CC3)cc2)c1
20.3%	O=C(O)c1ccc(-c2ccc(OCc3c(-c4ccccc4OC(F)(F)F)noc3C3CC3)cc2)cc1
70.6%	O=C(O)CCc1cccc(-c2ccc(OCc3c(-c4c(Cl)cccc4Cl)noc3C3CC3)cc2)c1
22.6%	CC(C)c1onc(-c2ccccc2OC(F)(F)F)c1COc1ccc(-c2cccc(C3(C(=O)O)CC3)c2)cc1
54.5%	CC(C)(Oc1ccc(-c2ccc(OCc3c(-c4c(Cl)cccc4Cl)noc3C3CC3)cc2)cc1)C(=O)O
4.5%	O=C(O)Cc1cccc(-c2ccc(OCc3c(-c4ccccc4OC(F)(F)F)noc3C3CC3)cc2)c1
41.2%	CC(C)c1onc(-c2ccccc2OC(F)(F)F)c1COc1ccc(-c2ccc(CC(=O)O)cc2)cc1
16.2%	O=C(O)c1cccc(-c2ccc(OCc3c(-c4c(Cl)cccc4Cl)noc3C3CC3)cc2)c1
42.8%	CC(C)c1onc(-c2c(Cl)cccc2Cl)c1COc1ccc(-c2cccc(C3(C(=O)O)CC3)c2)cc1
54.7%	O=C(O)C1(c2ccc(-c3ccc(OCc4c(-c5c(Cl)cccc5Cl)noc4C4CC4)cc3)cc2)CC1
